A word on the IC50: it is the concentration needed to halve the response being measured.

Protein sequences, listed by entry. Tags and fused reporters are not part of them. Residues count along the entry.
UniProt Q00535, whole entry: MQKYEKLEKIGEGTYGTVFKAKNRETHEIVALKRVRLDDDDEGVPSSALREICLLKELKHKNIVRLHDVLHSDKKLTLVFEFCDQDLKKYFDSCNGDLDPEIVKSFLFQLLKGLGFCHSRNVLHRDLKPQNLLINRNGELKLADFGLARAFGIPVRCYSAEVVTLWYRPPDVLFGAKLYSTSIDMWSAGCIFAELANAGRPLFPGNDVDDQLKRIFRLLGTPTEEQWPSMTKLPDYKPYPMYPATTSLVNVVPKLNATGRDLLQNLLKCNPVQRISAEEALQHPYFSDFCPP
UniProt Q15078, 99-307 partner limits assumed: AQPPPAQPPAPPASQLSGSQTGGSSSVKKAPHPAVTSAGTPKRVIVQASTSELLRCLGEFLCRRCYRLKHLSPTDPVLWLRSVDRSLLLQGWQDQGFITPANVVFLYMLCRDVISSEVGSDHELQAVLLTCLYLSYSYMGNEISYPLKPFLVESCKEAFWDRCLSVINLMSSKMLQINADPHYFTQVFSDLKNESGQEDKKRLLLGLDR

The values below come from patent US20130225591A1, “IMIDOTHIAZOLE KINASE INHIBITORS” (priority 2009, published 2013).

SMILES strings stand for the structures.

The experiment has as its target CDK5-p25 kinase (Homo sapiens, UniProt Q00535). Put plainly: CDK5-p25 kinase enzymatic assay. The following applies: read-out: IC50 potency, CDK5-p25 kinase enzymatic assay, <50 nM, 5 uM ATP, 0.3 nM CDK5-p25. How it is done: CDK5-p25 kinase (Invitrogen PV4677) enzymatic activity was measured using electrophoretic separation and fluorescent detection to monitor phosphorylation of a fluorescently labeled histone H1-derived peptide substrate, FL29 (5-FAM-GGGPATPKKAKKL-CONH2, Caliper #760429)
First, 0.25 uL of serially diluted compound in DMSO at 100× concentration was transferred into each well of a 384-well polystyrene assay plate. To this was added 15 uL of a 1.67× enzyme solution (500 pM enzyme, 1 mM DTT (Sigma D9779), 1× reconstitution buffer with protease inhibitor (Caliper #700329 proprietary formulation)), followed by centrifugation for 1 min at 1000 rpm, and incubation for 5-15 min at room temperature to allow binding of compound to enzyme. To initiate the reaction, 10 uL of substrate/ATP mix (245 mM Hepes pH 7.5, 0.003% Brij 35, 0.004% Tween, 12.75 uM ATP, 3.75 uM FL29 peptide) were added to each well, followed by centrifugation at 1000 rpm for 1 min. […]
After incubation, reactions were quenched by the addition of 45 uL Caliper termination solution (Caliper proprietary formula), followed by centrifugation at 1000 rpm for 1 min. Extent of reaction (percentage conversion of substrate to phosphorylated product) was then measured using the Caliper EZ II reader. […] The curve was analyzed using a four parameter logistical fit to calculate IC50 values.

On to `O=C(Cc1ccc(N2CCNC2=O)cc1)Nc1ncn2c(C(F)(F)F)csc12`, for which the IC50 is under 50 nM.
